In patent US12161722B2, “Bifunctional heterocyclic compound having BTK degradation function via ubiquitin proteasome pathway, and use thereof” (KOREA RESEARCH INSTITUTE OF CHEMICAL TECHNOLOGY, priority 2021, dated 2024) one finds DC50 data, which are given here for three compounds.

Protein sequences, listed by entry. Tags and fused reporters are not part of them. Lines headed by an entry give the natural chain unless they say otherwise; changes in a name come on top.
UniProt Q06187, whole entry: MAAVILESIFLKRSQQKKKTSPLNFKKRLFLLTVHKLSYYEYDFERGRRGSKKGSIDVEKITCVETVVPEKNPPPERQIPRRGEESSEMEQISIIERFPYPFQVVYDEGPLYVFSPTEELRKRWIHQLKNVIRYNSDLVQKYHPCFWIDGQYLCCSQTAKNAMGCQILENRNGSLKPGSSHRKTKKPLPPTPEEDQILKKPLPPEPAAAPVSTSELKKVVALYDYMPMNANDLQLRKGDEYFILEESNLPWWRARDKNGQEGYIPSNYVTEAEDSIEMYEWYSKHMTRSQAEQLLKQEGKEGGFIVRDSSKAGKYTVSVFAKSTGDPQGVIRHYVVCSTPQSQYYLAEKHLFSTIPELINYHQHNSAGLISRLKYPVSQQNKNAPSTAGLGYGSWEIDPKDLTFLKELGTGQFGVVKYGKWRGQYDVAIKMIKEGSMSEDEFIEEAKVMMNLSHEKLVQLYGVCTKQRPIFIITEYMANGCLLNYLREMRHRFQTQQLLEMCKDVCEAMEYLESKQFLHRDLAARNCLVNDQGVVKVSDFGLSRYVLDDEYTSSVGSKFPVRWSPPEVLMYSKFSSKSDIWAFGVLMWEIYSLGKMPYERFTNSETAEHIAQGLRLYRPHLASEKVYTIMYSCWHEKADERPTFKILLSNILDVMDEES
UniProt Q06187, whole entry C481S: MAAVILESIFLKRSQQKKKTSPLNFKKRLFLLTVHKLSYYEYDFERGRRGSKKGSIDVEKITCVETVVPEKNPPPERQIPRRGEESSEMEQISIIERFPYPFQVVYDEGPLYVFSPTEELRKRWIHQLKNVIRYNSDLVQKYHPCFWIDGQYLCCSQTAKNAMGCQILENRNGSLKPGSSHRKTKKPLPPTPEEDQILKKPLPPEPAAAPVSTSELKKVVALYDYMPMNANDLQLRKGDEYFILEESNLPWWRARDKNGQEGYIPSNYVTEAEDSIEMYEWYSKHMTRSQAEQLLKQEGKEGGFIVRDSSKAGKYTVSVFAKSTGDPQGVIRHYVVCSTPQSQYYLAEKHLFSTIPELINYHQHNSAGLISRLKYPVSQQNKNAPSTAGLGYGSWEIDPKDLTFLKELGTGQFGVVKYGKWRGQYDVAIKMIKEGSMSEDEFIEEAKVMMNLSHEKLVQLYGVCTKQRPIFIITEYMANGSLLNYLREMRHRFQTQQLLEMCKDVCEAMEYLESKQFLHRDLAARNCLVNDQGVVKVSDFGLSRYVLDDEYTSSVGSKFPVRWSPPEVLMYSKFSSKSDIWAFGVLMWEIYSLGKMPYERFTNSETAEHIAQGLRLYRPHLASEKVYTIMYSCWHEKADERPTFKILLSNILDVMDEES

For one experiment, the target named is WT BTK protein (Homo sapiens, UniProt Q06187). The experiment is described as follows: BTK protein degradation assay (Western blotting), WT BTK. Particulars: read-out: WT BTK Degradation (DC50 %), concentration range accounting for 50% degradation of WT BTK protein, TMD-8 or RAMOS cells, 24 hours. How it is done: (§1) TMD-8, RAMOS, or 293T BTK MUT (C481S) cells were treated with the synthesized compounds and measured for intracellular BTK protein levels by Western blotting. The protocol of the experiment using TMD-8 cells is as follows.
TMD-8 cells were resuspended in an RPMI1640 medium (Hyclone, SH30027.01, 10% FBS (Hyclone, SV30207.02), 1% penicillin-streptomycin (Welgene, LS 202-02) and the cell suspension was seeded at a density of 1×10^6 cells/mL in an amount of 1 mL per well into 12-well plates.
(§2) The 12-well plates were treated as follows. A 10 mM stock was 1/10 diluted in series with DMSO ([…]) to form final concentrations of 10, 1, 0.1, 0.01, 0.001, and 0.0001 mM. The compounds with such concentrations were applied to cells, followed by harvesting the cells 24 hours later. For a negative control, a 1/10 dilution of DMSO in the medium (3 mL DMSO+27 mL medium) was used.
The 1-mL cell culture in each well was passed many times through a pipette and then transferred into a 1.5-mL microtube before centrifugation (500 g, 5 min, 4° C.). The supernatant was discarded and the cell pellet was washed with PBS. After centrifugation (500 g, 5 min, 4° C.) again, the supernatant was discarded and the cell pellet was taken.
A lysis buffer was prepared as follows. RIPA buffer (Biosesang, RC2038-050-00)+0.5 mM PMSF (SIGMA, P7626)+1×Protease/Phosphatase Inhibitor (Cell signaling, 5872S) was added in an amount […] per well and left for 30 minutes on ice (vortexing at 0 and 30 minutes) before sonication (5 cycles of pulse for 10 seconds and rest for 30 seconds, 70% amplification). The supernatant obtained by centrifugation (15000 g, 15 min, 4° C.) was transferred into a new microtube. […] After being cooled for 10 minutes, the 96-well plates were measured for absorbance at 562 nm on the BioTek, SYNERGY H1 microplate reader. Samples were prepared by protein quantification based on the absorbance measurements and then boiled at 70° C. for 10 minutes. […]

The target of another experiment is C481S BTK protein (Homo sapiens, UniProt Q06187, C481S). Put plainly: BTK protein degradation assay (Western blotting), C481S BTK. Particulars: read-out: C481S BTK Degradation (DC50 %), concentration range accounting for 50% degradation of C481S BTK protein, 293T BTK MUT (C481S) cells. On the procedure: as §1, §2
The 1-mL cell culture in each well was passed many times through a pipette and then transferred into a 1.5-mL microtube before centrifugation (500 g, 5 min, 4° C.). The supernatant was discarded and the cell pellet was washed with PBS. […]
A lysis buffer was prepared as follows. […] After being cooled for 10 minutes, the 96-well plates were measured for absorbance at 562 nm on the BioTek, SYNERGY H1 microplate reader. Samples were prepared by protein quantification based on the absorbance measurements and then boiled at 70° C. for 10 minutes. […]
According to the concentration ranges of compounds accounting for 50% degradation of WT BTK protein and C481S BTK protein, the activities are expressed as +++(0.0001-0.01 μM), ++(0.01-1 μM), +(1-10 μM), −(>10 μM), and NT (not tested). […]

On to `Cc1cccc(C)c1Nc1nn(C)c2nc(Nc3ccc4c(c3)CN(C(=O)C3(F)CCN(C(=O)c5ccc6c(c5)CN(C5CCC(=O)NC5=O)C6=O)CC3)CC4)ncc12` (stereo not shown), for which, on WT BTK protein, the DC50 was in the range of 0.1 to 10 nM.

With `Cc1cccc(C)c1Nc1nn(C)c2nc(Nc3ccc(C4CCN(C(=O)c5ccc6c(c5)CN(C5CCC(=O)NC5=O)C6=O)CC4)cc3)ncc12` (stereo not shown), the DC50 at WT BTK protein was 0.1 to 10 nM. `Nc1ncnc2c1c(-c1ccc(Oc3ccccc3)cc1)nn2C1CCN(CCOCCOCC(=O)Nc2ccc3c(c2)C(=O)N(C2CCC(=O)NC2=O)C3=O)CC1` (stereo not shown): the results for the DC50 at C481S BTK protein and on WT BTK protein were 1000 to 10000 nM and 10 to 1000 nM, respectively.
